Species on record: Homo sapiens

SMILES: C/C(=C\CC12OC(C)(C)C3CC(C=C4C(=O)c5c(O)cccc5OC431)C2=O)COC(=O)c1cccnc1 (stereo unspecified)
- Kinact: 0.04 M⁻¹ s⁻¹

Source: ChEMBL document CHEMBL5523703, “Modulators for palmitoylation of proteins and small molecules” (Eur J Med Chem, 2024)
